Earlier results in patent publication US12384852B2, “Genetically modified NK-92 cells having a safety switch” (ImmunityBio, Inc., priority 2015, dated 2025).

System: NK-92 cells
Settings: NK-92 cells in culture; cited from earlier work

## rIL-2: recombinant interleukin 2
  dose sufficient to maintain proliferation: 1 IU/mL
